Patent publication US11066414B2, “Cot modulators and methods of use thereof” (Gilead Sciences, Inc., priority 2015, dated 2021)

Sequences of proteins named here, by UniProt entry; tags and fusion partners are left off. Residues count along the entry.
UniProt P41279, 30-397: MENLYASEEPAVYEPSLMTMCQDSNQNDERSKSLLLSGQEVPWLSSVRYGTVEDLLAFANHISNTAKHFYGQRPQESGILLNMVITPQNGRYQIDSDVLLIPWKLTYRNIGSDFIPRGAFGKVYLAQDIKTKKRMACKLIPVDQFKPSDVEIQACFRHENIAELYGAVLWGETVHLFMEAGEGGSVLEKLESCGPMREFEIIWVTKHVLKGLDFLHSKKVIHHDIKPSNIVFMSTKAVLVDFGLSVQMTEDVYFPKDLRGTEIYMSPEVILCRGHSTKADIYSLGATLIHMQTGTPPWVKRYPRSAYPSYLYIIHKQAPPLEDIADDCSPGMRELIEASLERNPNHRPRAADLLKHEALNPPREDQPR

Molecular target: Human Cot (Homo sapiens (Human), UniProt P41279)
Assay: High Throughput Cot Biochemical Assay
Conditions: IC50 HTRF, Cot HTRF (TR-FRET KinEASE) biochemical assay, 400 μM ATP

Row | pIC50 | Structure (SMILES)
1 | 7.89 | CC(C)(C)CNc1c(C#N)cnc2c(Cl)cc(N[C@H](c3nnn(C4(C(F)F)CC4)c3F)c3cccc4ncccc34)cc12 [Example 962, (S)-8-chloro-6-(((1-(1-(difluoromethyl)cyclopropyl)-5-fluoro-1H-1,2,3-triazol-4-yl)(quinolin-5-yl)methyl)amino)-4-(neopentylamino)quinoline-3-carbonitrile]
2 | 7.92 | COc1c(C(Nc2cc(C#N)c3ncc(C#N)c(NCC(C)(C)C)c3c2)c2ccc(F)nc2C)nnn1C (stereo not shown) [Example 908, 6-(((6-fluoro-2-methylpyridin-3-yl)(5-methoxy-1-methyl-1H-1,2,3-triazol-4-yl)methyl)amino)-4-(neopentyl-amino)quinoline-3,8-dicarbonitrile]
3 | 7.82 | COc1ccc([C@H](Nc2cc(Cl)c3ncc(C#N)c(NCC(C)(C)C)c3c2)c2nnn(C3(C(F)F)CC3)c2OC)c(C)n1 [Example 966, (S)-8-chloro-6-(((1-(1-(difluoromethyl)cyclopropyl)-5-methoxy-1H-1,2,3-triazol-4-yl)(6-methoxy-2-methylpyridin-3-yl)methyl)amino)-4-(neopentylamino)quinoline-3-carbonitrile]

Same assay, conditions: IC50 HTRF, Cot HTRF (TR-FRET) biochemical assay

Row | pIC50 | Structure (SMILES)
4 | 7.46 | CC(C)(C)CNc1c(C#N)cnc2c(Cl)cc(N[C@@H](c3ccc(Cl)nc3)c3cn(C4(C(F)(F)F)CC4)nn3)cc12 [Example 793, (S)-8-chloro-6-(((6-chloropyridin-3-yl)(1-(1-(trifluoromethyl)cyclopropyl)-1H-1,2,3-triazol-4-yl)methyl)amino)-4-(neopentylamino)quinoline-3-carbonitrile]
5 | 7.64 | [2H][C@](Nc1cc(Cl)c2ncc(C#N)c(NCC(C)(C)C)c2c1)(c1ccc(F)nc1)c1c[nH]nn1 [Example 135, (S)-8-chloro-6-(((6-fluoropyridin-3-yl)(1H-1,2,3-triazol-4-yl)methyl-d)amino)-4-(neopentylamino)quinoline-3-carbonitrile]
6 | 7.89 | CC(C)(C)n1cc([C@@H](Nc2cc(Cl)c3ncc(C#N)c(Nc4ccc(F)c(Cl)c4)c3c2)c2cscn2)nn1 [Example 361, (S)-6-(((1-(tert-butyl)-1H-1,2,3-triazol-4-yl)(thiazol-4-yl)methyl)-amino)-8-chloro-4-((3-chloro-4-fluorophenyl)amino)quinoline-3-carbonitrile]
7 | 7.89 | CC(C)n1cc([C@@H](Nc2cc(Cl)c3ncc(C#N)c(Nc4ccc(F)c(Cl)c4)c3c2)c2cc(C#N)cs2)nn1 [Example 338, (R)-8-chloro-4-((3-chloro-4-fluorophenyl)amino)-6-(((4-cyanothiophen-2-yl)(1-isopropyl-1H-1,2,3-triazol-4-yl)methyl)-amino)quinoline-3-carbonitrile]
8 | 7.43 | Cn1cnc([C@H](Nc2cc(Cl)c3ncc(C#N)c(Nc4ccc(F)c(Cl)c4)c3c2)c2c[nH]nn2)c1 [Example 266, (S)-8-chloro-4-((3-chloro-4-fluorophenyl)amino)-6-(((1-methyl-1H-imidazol-4-yl)(1H-1,2,3-triazol-4-yl)methyl)amino)-quinoline-3-carbonitrile]
9 | 7.85 | Cc1nc(F)ccc1[C@H](Nc1cc(Cl)c2ncc(C#N)c(N[C@H](C)C(C)(C)C)c2c1)c1cn(C2(C(F)(F)F)CC2)nn1 [Example 582, 8-chloro-4-(((R)-3,3-dimethylbutan-2-yl)amino)-6-(((S)-(6-fluoro-2-methylpyridin-3-yl)(1-(1-(trifluoromethyl)cyclopropyl)-1H-1,2,3-triazol-4-yl)methyl)amino)quinoline-3-carbonitrile]
10 | 7.85 | Cc1nc(Cl)ccc1[C@H](Nc1cc(Cl)c2ncc(C#N)c(Nc3cnc(F)c(F)c3)c2c1)c1c[nH]nn1 [Example 169, (S)-8-chloro-6-(((6-chloro-2-methylpyridin-3-yl)(1H-1,2,3-triazol-4-yl)methyl)amino)-4-((5,6-difluoropyridin-3-yl)amino)quinoline-3-carbonitrile]
11 | 7.89 | [2H]C(Nc1cc(Cl)c2ncc(C#N)c(N[C@H](CC)c3ccccc3)c2c1)(c1cn(C2CC2)nn1)c1cc(F)cnc1C (stereo partly drawn) [Example 113, 8-chloro-6-(((1-cyclopropyl-1H-1,2,3-triazol-4-yl)(5-fluoro-2-methylpyridin-3-yl)methyl-d)amino)-4-(((R)-1-phenylpropyl)amino)quinoline-3-carbonitrile]
12 | 7.47 | Cc1ccc([C@H](Nc2cc(Cl)c3ncc(C#N)c(NCC(C)(C)C)c3c2)c2cn(C3(C(F)(F)F)CC3)nn2)cn1 [Example 795, (S)-8-chloro-6-(((6-methylpyridin-3-yl)(1-(1-(trifluoromethyl)cyclopropyl)-1H-1,2,3-triazol-4-yl)methyl)amino)-4-(neopentylamino)quinoline-3-carbonitrile]
13 | 7.89 | CC(C)(C)CNc1c(C#N)cnc2c(Br)cc(N[C@H](c3cn(C4(C(F)(F)F)CC4)nn3)c3cccc4ncsc34)cc12 [Example 439, (S)-6-((benzo[d]thiazol-7-yl(1-(1-(trifluoromethyl)cyclopropyl)-1H-1,2,3-triazol-4-yl)methyl)amino)-8-bromo-4-(neopentylamino)quinoline-3-carbonitrile]
14 | 7.82 | Cc1scnc1[C@H](Nc1cc(Cl)c2ncc(C#N)c(Nc3ccc(F)c(Cl)c3)c2c1)c1cn(C2CCN(C(C)(C)C)CC2)nn1 [Example 137, (S)-6-(((1-(1-(tert-butyl)piperidin-4-yl)-1H-1,2,3-triazol-4-yl)(5-methylthiazol-4-yl)methyl)amino)-8-chloro-4-((3-chloro-4-fluorophenyl)amino)quinoline-3-carbonitrile]
15 | 7.92 | N#Cc1cnc2c(Cl)cc(N[C@H](c3c[nH]nn3)c3cccnc3Cl)cc2c1Nc1cnc(F)c(F)c1 [Example 161, (S)-8-chloro-6-(((2-chloropyridin-3-yl)(1H-1,2,3-triazol-4-yl)methyl)amino)-4-((5,6-difluoropyridin-3-yl)amino)quinoline-3-carbonitrile]
16 | 7.85 | Cc1ncoc1[C@H](Nc1cc(Cl)c2ncc(C#N)c(Nc3ccc(F)c(Cl)c3)c2c1)c1cn(C2CCN(C(C)(C)C)CC2)nn1 [Example 265, (R)-6-(((1-(1-(tert-butyl)piperidin-4-yl)-1H-1,2,3-triazol-4-yl)(4-methyloxazol-5-yl)methyl)amino)-8-chloro-4-((3-chloro-4-fluorophenyl)amino)quinoline-3-carbonitrile]
17 | 7.82 | Cc1nc(F)ccc1[C@H](Nc1cc(Cl)c2ncc(C#N)c(NCC(C)(C)C)c2c1)c1cn(CC2(C(F)(F)F)CC2)nn1 [Example 751, (S)-8-chloro-6-(((6-fluoro-2-methylpyridin-3-yl)(1-((1-(trifluoromethyl)-cyclopropyl)methyl)-1H-1,2,3-triazol-4-yl)methyl)amino)-4-(neopentylamino)quinoline-3-carbonitrile]
18 | 7.89 | Cn1c(=O)ccc2c([C@H](Nc3cc(Cl)c4ncc(C#N)c(NCC(C)(C)C)c4c3)c3cn(C4(C(F)(F)F)CC4)nn3)cccc21 [Example 789, (S)-8-chloro-6-(((1-methyl-2-oxo-1,2-dihydroquinolin-5-yl)(1-(1-(trifluoromethyl)cyclopropyl)-1H-1,2,3-triazol-4-yl)methyl)amino)-4-(neopentylamino)quinoline-3-carbonitrile]

Same assay, conditions: read-out: IC50 HTRF; Cot HTRF (TR-FRET) biochemical assay

Row | pIC50 | Structure (SMILES)
19 | 7.60 | Cc1nc(F)ccc1[C@H](Nc1cc(Cl)c2ncc(C#N)c(NCC(C)(C)C)c2c1)c1cn(CC(C)(C)C(F)(F)F)nn1 [Example 755]

pIC50: −log10 of the molar value.
